One substance from patent US20100311668A1, “PERSONAL CARE AND COSMETIC COMPOSITION CONTAINING TETRAPEPTIDES WITH THE MOTIFS GX1X2G, PX1X2P, OR PX1X2K” (EVONIK GOLDSCHMIDT GMBH, priority 2007, published 2010) can be followed below.

The assay concerns collagen 1 alpha-2 (COL1A2). Description: Collagen 1 alpha-2 (COL1A2) mRNA expression in human dermal fibroblasts, quantitative PCR. As to conditions: HDFs, 1 μg/ml peptide, 24 hours, vs PBS control, normalized to 18S rRNA. The format is cell-based. The protocol: FIG. 4: Collagen 1 alpha-2 (COL1A2) expression in human dermal fibroblasts (HDFs). HDFs were incubated with 1 μg/ml of the respective tetrapeptide (SEQ ID NO:1-SEQ ID NO:4 and SEQ ID NO:11) or with a combination of all four tetrapeptides (SEQ ID NO:1,2,3,11). Controls received PBS. Cells were harvested after 24 hours incubation and RNA was isolated. Expression of FN1 was determined by quantitative PCR. 18s rRNA served as house keeping gene for normalization. Given are means of three independent experiments. […]
For isolation of total RNA RNeasy Total RNA Kits (Qiagen, Hilden; Germany) were used according to the manufacturer's guidelines. The RNA concentration was determined via photometric measurement at 260/280 (Biophotometer, Eppendorf, Hamburg, Germany).
Aliquots of total RNA (100 ng) were applied for cDNA-Synthesis using Superscript™ III First-Strand synthesis system for the reverse transcription step with random […] (Invitrogen, Karlsruhe, Germany). […] Three independent experiments were performed with 3 determinations each and the mean value of these was calculated. […] Each sample was analyzed in double employing the universal protocol over 46 cycles. […]

Regarding GAGP [SEQ ID NO:11, tetrapeptide GAGP], the COL1A2 expression entry is given as “even more pronounced”.
